In PubChem BioAssay AID1963597 (National Center for Advancing Translational Sciences (NCATS), 2024):

System: human liver microsomes, metabolic stability half-life
Assay: NCATS Human Liver Microsomal (HLM) Stability Profiling
Conditions: active compounds read high
From the text: Assay submitter (PI): Dr. Pranav Shah
NIH Center for Advancing Translational Sciences
Pharmacokinetic issues were the leading cause of drug attrition, accounting for approximately 40% of all cases before the turn of the century. To this end, several high-throughput in vitro assays like microsomal stability have been developed to evaluate the pharmacokinetic profiles of compounds in early stages of drug discovery. At NCATS, a single-point rat liver microsomal (RLM) stability assay is used as a Tier I assay, while human liver microsomal (HLM) stability is employed as a Tier II assay. While it is beneficial to have compound libraries screened for HLM stability, the increasing magnitude of hits routinely generated, and the time- and re-source-intensive nature of the assay makes it important to find alternatives. One strategy is to rely on in silico models that have been developed using data generated from these assays. Herein, we describe the development of an HLM stability prediction model using our in-house dataset of ~7,000 compounds, employing both traditional and advanced machine learning methods. […]
The substrate depletion method, also called the in vitro t1/2 method was used to analyze test compounds. […] Sample quantification and analysis was performed using a previously described method (Shah et al., 2016, Siramshetty et al., 2020). […]

`CC(=O)N1CCc2ccc(N(C(=O)/C=C/c3cccc(C#N)c3)C3CCN(CCC4CCCC4)CC3)cc21` gave a half-life of 11.2 min.
